Experiments:
colon cancer cell LoVo = experiment: In vitro growth inhibition, CCK-8; assay type: cell-based, human; conditions: 48 hours
[1] = test system: breast cancer cell MDA-MB-468; experiment: In vitro growth inhibition, CCK-8; assay type: cell-based, human; conditions: 48 hours, most sensitive of the four cell lines
[2] = test system: hypopharyngeal carcinoma cell FaDu; experiment: In vitro growth inhibition, chemiluminescence (ATPLite); assay type: cell-based, human; conditions: 96 hr, weaker reaction
[3] = test system: GEO human colon carcinoma xenograft; experiment: In vivo anti-tumor activity, tumor xenograft; parameters: species or system BALB/c nude mice
[4] = test system: epidermoid carcinoma cell A431; experiment: In vitro growth inhibition, chemiluminescence (ATPLite); assay type: cell-based, human; conditions: 96 hr, weaker reaction

Substance: cetuximab [Erbitux®]
- inhibition of proliferation (colon cancer cell LoVo): capable of inhibiting the proliferation
- inhibition of proliferation [1]: capable of inhibiting the proliferation
- inhibition of proliferation [2]: capable of inhibiting the proliferation
- tumor suppression, repeat of the second experiment ([3]; all doses (LR004 25, 50, 100 mg/kg; Erbitux 100 mg/kg), twice weekly for four weeks): complete tumor suppression
- tumor volume ([3]; i.v. twice weekly, LR004 100-200 mg/kg for three weeks or 25, 50, 100 mg/kg for four weeks, Erbitux 100 mg/kg): reduced the tumor volume significantly
- inhibition of proliferation [4]: capable of inhibiting the proliferation
